Test results as given in article PMC8343220, “The selectivity of α‐adrenoceptor agonists for the human α1A, α1B, and α1D‐adrenoceptors” (Pharmacology Research & Perspectives, 2021).

By UniProt entry, the sequences of proteins in these tests, tags left out.
UniProt P25100, whole entry: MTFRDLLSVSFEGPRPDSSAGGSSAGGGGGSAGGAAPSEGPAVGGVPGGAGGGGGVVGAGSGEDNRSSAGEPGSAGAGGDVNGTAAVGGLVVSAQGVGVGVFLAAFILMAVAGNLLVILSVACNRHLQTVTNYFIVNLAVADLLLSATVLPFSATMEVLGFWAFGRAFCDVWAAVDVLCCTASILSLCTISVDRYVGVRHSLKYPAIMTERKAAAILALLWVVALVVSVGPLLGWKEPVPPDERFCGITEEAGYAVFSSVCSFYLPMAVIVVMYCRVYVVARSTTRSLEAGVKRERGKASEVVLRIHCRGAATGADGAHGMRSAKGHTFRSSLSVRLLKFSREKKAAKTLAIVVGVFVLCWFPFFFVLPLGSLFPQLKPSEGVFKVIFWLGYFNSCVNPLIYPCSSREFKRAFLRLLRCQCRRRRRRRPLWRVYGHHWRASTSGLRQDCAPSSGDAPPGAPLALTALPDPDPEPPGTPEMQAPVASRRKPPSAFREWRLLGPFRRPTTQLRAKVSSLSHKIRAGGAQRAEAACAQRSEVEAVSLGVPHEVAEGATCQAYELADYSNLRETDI
UniProt P35368, whole entry: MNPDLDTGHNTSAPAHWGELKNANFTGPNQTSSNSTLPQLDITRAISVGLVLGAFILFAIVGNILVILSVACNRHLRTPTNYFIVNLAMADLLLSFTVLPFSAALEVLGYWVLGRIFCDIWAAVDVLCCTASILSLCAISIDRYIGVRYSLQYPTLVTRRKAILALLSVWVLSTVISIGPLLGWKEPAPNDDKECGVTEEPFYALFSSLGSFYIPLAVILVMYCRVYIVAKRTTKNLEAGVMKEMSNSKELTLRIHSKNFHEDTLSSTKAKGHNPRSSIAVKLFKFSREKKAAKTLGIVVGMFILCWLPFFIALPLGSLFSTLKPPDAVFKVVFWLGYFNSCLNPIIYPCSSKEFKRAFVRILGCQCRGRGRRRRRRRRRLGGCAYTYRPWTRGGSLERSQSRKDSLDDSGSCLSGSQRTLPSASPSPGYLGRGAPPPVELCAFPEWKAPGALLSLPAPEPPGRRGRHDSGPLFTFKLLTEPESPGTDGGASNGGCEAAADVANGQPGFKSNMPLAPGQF

Key:
human α1A‐adrenoceptor [1] = target: T1, human α1A‐adrenoceptor (Homo sapiens, UniProt P35348); experiment: ^3H‐cAMP accumulation, CHO‐α1A cells; format: cell-based; conditions: % of 10 µM forskolin response
T1 construct: expressed in transfected cells; host or cells: CHO-K1
T1 sequence (P35348 1-466): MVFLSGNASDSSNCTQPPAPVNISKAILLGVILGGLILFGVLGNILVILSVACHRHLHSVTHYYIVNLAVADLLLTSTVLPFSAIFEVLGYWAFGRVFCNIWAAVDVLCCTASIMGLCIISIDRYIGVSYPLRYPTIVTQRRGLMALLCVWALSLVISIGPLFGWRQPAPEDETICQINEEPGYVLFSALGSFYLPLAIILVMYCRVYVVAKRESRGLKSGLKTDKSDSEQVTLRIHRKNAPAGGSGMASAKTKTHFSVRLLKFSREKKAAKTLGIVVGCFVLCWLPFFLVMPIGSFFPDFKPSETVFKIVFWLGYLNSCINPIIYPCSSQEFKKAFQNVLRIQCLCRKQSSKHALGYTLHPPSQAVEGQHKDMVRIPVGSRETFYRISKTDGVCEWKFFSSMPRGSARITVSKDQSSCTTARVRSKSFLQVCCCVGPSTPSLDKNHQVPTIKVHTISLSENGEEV

[2] = test system: parental CHO cell line without any transfected receptors; experiment: ERK1/2‐phosphorylation, parent CHO cells without transfected receptors; format: cell-based, Chinese hamster
[3] = test system: parental CHO cell line without any transfected receptors; experiment: Forskolin‐stimulated cAMP accumulation, parent CHO cells without transfected receptors; format: cell-based, Chinese hamster
human α1A‐adrenoceptor [4] = target: T1, human α1A‐adrenoceptor; experiment: Intracellular free calcium mobilization, CHO‐α1A cells; format: cell-based
[5] = target: T2, human α1D‐adrenoceptor (full length) (Homo sapiens, UniProt P25100); experiment: Intracellular free calcium mobilization, CHO‐α1D cells; format: cell-based
T2 construct: human α1D‐adrenoceptor (full length) were used; expressed in transfected cells; host or cells: CHO-K1

human α1A‐adrenoceptor [6] = target: T1, human α1A‐adrenoceptor; experiment: ^3H‐cAMP accumulation in the presence of 10 μM forskolin, CHO‐α1A cells; format: cell-based; conditions: fold increase of the forskolin response
[7] = target: T2, human α1D‐adrenoceptor (full length); experiment: ERK1/2‐phosphorylation (Surefire Alphascreen), CHO‐α1D cells; format: cell-based
human α1B‐adrenoceptor [8] = target: T3, human α1B‐adrenoceptor (Homo sapiens, UniProt P35368); experiment: Intracellular free calcium mobilization, CHO‐α1B cells; format: cell-based
T3 construct: expressed in transfected cells; host or cells: CHO-K1

human α1B‐adrenoceptor [9] = target: T3, human α1B‐adrenoceptor; experiment: ERK1/2‐phosphorylation (Surefire Alphascreen), CHO‐α1B cells; format: cell-based
human α1A‐adrenoceptor [10] = target: T1, human α1A‐adrenoceptor; experiment: ERK1/2‐phosphorylation (Surefire Alphascreen), CHO‐α1A cells; format: cell-based
[11] = target: T2, human α1D‐adrenoceptor (full length); experiment: ^3H‐prazosin whole‐cell radioligand binding, CHO‐α1D cells

SMILES	cAMP accumulation % forskolin (human α1A‐adrenoceptor [1])	ERK1/2-phosphorylation Log EC50 [2]	cAMP accumulation (in presence of forskolin) Log EC50 [3]	Intracellular calcium release % ionomycin (human α1A‐adrenoceptor [4]) [%]	Intracellular calcium release % Ionomycin at 100 µM [5] [%]	cAMP accumulation (in presence of forskolin) Fold increase (human α1A‐adrenoceptor [6])	ERK1/2‐phosphorylation % PDBu [7] [%]	Intracellular calcium release % ionomycin (human α1B‐adrenoceptor [8]) [%]	ERK1/2‐phosphorylation % PDBu (human α1B‐adrenoceptor [9]) [%]	ERK1/2‐phosphorylation % PDBu (human α1A‐adrenoceptor [10]) [%]	Affinity selectivity ratio α1B vs α1D [11] [fold]
CC(Cc1ccc(O)cc1)NCC(O)c1cc(O)cc(O)c1 (centres unmarked) [Fenoterol]	No response	No response	No response	30.3 ± 7.6	4.4 ± 1.8	No response	7.6 ± 1.4	38.0 ± 3.2	33.8 ± 7.3	33.8 ± 6.7	–
Nc1cc(Cl)c(N=C2NCCN2)c(Cl)c1 [para‐amino‐clonidine]	–	–	–	–	–	–	–	–	–	–	1.7
